Drawing on ChEMBL document CHEMBL4765382, “Novel anilide and benzylamide derivatives of arylpiperazinylalkanoic acids as 5-HT/5-HT receptor antagonists and phosphodiesterase 4/7 inhibitors with procognitive and antidepressant activity” (Eur J Med Chem, 2020), this text covers Activity, Kb and Ki for 9 compounds.

By UniProt entry, the sequences of proteins in these tests, tags left out.
UniProt P34969, whole entry: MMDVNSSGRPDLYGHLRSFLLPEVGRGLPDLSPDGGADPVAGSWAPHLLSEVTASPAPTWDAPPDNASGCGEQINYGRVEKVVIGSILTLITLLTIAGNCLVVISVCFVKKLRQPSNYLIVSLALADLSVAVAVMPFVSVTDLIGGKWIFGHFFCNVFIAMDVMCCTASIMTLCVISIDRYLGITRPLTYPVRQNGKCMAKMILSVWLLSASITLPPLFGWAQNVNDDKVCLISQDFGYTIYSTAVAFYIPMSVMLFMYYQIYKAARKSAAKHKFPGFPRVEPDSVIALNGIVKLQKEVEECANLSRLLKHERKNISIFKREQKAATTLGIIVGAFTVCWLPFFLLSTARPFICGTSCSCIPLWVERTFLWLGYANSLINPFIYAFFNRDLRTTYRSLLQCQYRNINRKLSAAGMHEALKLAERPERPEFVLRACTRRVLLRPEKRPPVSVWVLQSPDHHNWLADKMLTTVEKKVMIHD

Activity calls are given as the source filed them. The rule behind the calls is not given here.

For experiment [1], the target named is T1, 5-hydroxytryptamine receptor 7 (Homo sapiens, UniProt P34969). Put plainly: Agonist activity at recombinant human 5HT7 receptor expressed in CHO-K1 cells co-transfected with beta-lactamase reporter gene assessed as cAMP accumulation measured after 1 hr by LANCE TR-FRET assay. Format: functional, cell-based. (In general: Reporter assays use an easily measured gene product as a stand-in for the process of interest.)

Experiment [2] addresses T1, 5-hydroxytryptamine receptor 7. Put plainly: Antagonist activity at recombinant human 5HT7 receptor expressed in CHO-K1 cells co-transfected with beta-lactamase reporter gene assessed as inhibition of serotonin-induced cAMP accumulation measured after 1 hr by LANCE TR-FRET assay. Format: functional, cell-based. The note with it: filed as antagonist.
Experiment [3] shares this target. As to the kind of experiment: Displacement of [3H]-5-CT from human 5HT7 receptor expressed in HEK293 cells measured after 1 hr by microbeta counting method. Format: cell-based. In general terms: Loss of bound radioactivity is the signal in a displacement assay; it reports binding, not function.

In the case of `COc1ccccc1N1CCN(CCCCC(=O)Nc2cccc(C(C)C)c2)CC1.Cl`, in experiment [1], the outcome was inactive. Also, the Kb (in general, the affinity of an antagonist, worked out from how it opposes an agonist) in experiment [2] turned out to be 100 nM.

On to `COc1ccccc1N1CCN(CCCC(=O)NCc2ccccc2O)CC1`, for which the outcome in experiment [1] was inactive. In experiment [2], the Kb was 120 nM.

With `COc1ccccc1N1CCN(CCCC(=O)Nc2cc(C(C)(C)C)ccc2O)CC1`, in experiment [1], the outcome was inactive. Besides, the Kb in experiment [2] came out at 2300 nM.

With `COc1ccccc1N1CCN(CCCC(=O)Nc2ccc(C(C)(C)C)cc2)CC1`, the result in experiment [1] was inactive.

As for `COc1ccccc1N1CCN(CCCCC(=O)Nc2cccc(C(=O)OC(C)(C)C)c2)CC1`, the outcome in experiment [1] was inactive. Besides, in experiment [2], the antagonist dissociation constant (Kb) is 9900 nM.

Consider `COc1ccccc1N1CCN(CCCCC(=O)Nc2ccc(C(C)C)cc2)CC1.Cl`, for which the outcome in experiment [1] was inactive. Besides, the Ki (usually the equilibrium dissociation constant of an inhibitor or competing ligand from its target) in experiment [3] was found to be 451 nM. Besides, the Kb in experiment [2] was found to be 460 nM.

Consider `COc1ccccc1N1CCN(CCCCCC(=O)Nc2cc(C(C)(C)C)ccc2O)CC1`, for which the outcome in experiment [1] was inactive. The Kb in experiment [2] amounted to 480 nM.

Consider `COc1ccccc1N1CCN(CCCCC(=O)NCc2ccccc2O)CC1`, for which the outcome in experiment [1] was inactive. Further, in experiment [2], the antagonist dissociation constant (Kb) turned out to be 240 nM.

With `COc1ccccc1N1CCN(CCCCCC(=O)Nc2ccc(C(C)(C)C)cc2)CC1`, the result in experiment [1] was inactive. Also, in experiment [2], the Kb turned out to be 870 nM.
